Source: PubChem (Broad Institute)
Glyco luc inh: blocks N-linked glycosylation in D54 reporter cells. D54 ERlucT glycosylation luciferase reporter, 24 h; percent of 100 nM tunicamycin response. 0.23% of 360,000 active. reporter increase, % at 12.5 µM;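 active = mean luciferase reporter signal, scaled so untreated is 0 and the glycosylation-blocking control 100, at or above a set limit in every replicate; inconclusive = mean reaches the limit but not every replicate does; inactive = mean below the limit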;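 note: luciferase carries N-glycosylation sites so blocking glycosylation raises the light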
Cneo AK release: causes C. neoformans cell lysis | adenylate kinase release luminescence, 4 h; normalised: neutral wells 0, clomiphene wells 100 | lysis activity, % at 15 µM | 0.2% of 360,000 active;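 active = mean lysis activity across replicates of at least 80%, whatever share of replicates individually reach that level; inactive = mean lysis activity below 80%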
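Test system: log-phase Cryptococcus neoformans yeast cells. Input: 5 × 10^6 yeast cells/mL. Medium: fresh YPD growth medium. Doses: single dose. Incubation: static 4 h at 37 °C with compound, 1 h detection. Measured by: luminescent adenylate kinase detection reagent. Read-out: signal increase indicating cell lysis. Benchmarks: Clomiphene.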
Statin myotox sup: suppression of simvastatin myotoxicity; C2C12 myotubes + simvastatin, ATP luminescence, 48 h; scaled: DMSO 0, geranylgeraniol control 100; rescue of ATP level, % at 7.49 µM; 0.78% of 330,000 active; AID 602340;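 active = mean ATP rescue above about 67%, or every replicate alone reaching that limit, limit read from the data, passing the limit was not always enough; inconclusive = no clear call, values can overlap the other calls; inactive = mean under the limit and some replicate under it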;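 note: myotubes were challenged with 10 µM simvastatin during compound exposure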
Yeast UUG start-1: alters start codon recognition fidelity in yeast. S. cerevisiae UUG-firefly luciferase reporter, luminescence/redox ratio. activity score, % at 18.7 µM. 0.13% of 350,000 active. AID 602363;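 active = replicate mean at a twofold rise or more, about +100% in these data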;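 also: firefly luciferase made from a UUG start codon reports start codon fidelity; reporter light over untreated wells divided by growth signal over untreated wells; some hits fall short of that in this replicate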
miR122 inh: blocks miR-122 activity in Huh7 sensor cells; Huh7 miR-122 Renilla luciferase sensor, 48 h; neutral wells = 0, positive control = 100; activation (reporter increase), % at 12.5 µM; 0.3% of 340,000 active; AID 602342;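 active = mean replicate activation score at least 90 and every replicate individually at or above 90; inconclusive = only one of the two criteria met; inactive = neither criterion met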;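 note: higher luciferase means less miR-122 activity so hits act as miR-122 inhibitors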
Yeast UUG start-2: yeast start codon fidelity modulation. S. cerevisiae UUG-start firefly luciferase, luminescence, 4 h; 100% means double the DMSO signal. shares compounds with Yeast UUG start-1. AID 652061. 540 tested, under 10 active. activation, % at 38 µM;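 active = signal increase whose fitted curve reaches an absolute level of 40 at a concentration under 10 µM; inactive = activity opposite to the expected increase, or the rest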
A number is an active result; - = inactive; ? = inconclusive; . = no result; ! = not confirmed by another sample. Hits are enriched below; roughly 1.2% of the tested compounds scored in any of these assays.

SMILES | Glyco luc inh | Cneo AK release | Statin myotox sup | Yeast UUG start-1 | miR122 inh | Yeast UUG start-2
COCC(=O)Nc1ccc2c(c1)OC[C@@H](C)N(C(=O)COC)C[C@H](C)[C@@H](OC)CN(C)C2=O | . | - | - | - | . | .
COCC(=O)Nc1ccc2c(c1)OC[C@@H](C)N(C(=O)c1cnccn1)C[C@@H](C)[C@@H](OC)CN(C)C2=O | . | - | - | 156 | . | -
COCC(=O)Nc1ccc2c(c1)C(=O)N(C)C[C@@H](OC)[C@@H](C)CN(Cc1ccccc1F)[C@@H](C)CO2 | . | - | - | 180 | . | -
COc1cc(SC)ccc1C(=O)Nc1cccc(C2OCCCO2)c1 | - | - | - | - | . | .
C[C@@H]1CN([C@@H](C)CO)C(=O)c2cc(NC(=O)c3ccncc3)ccc2O[C@@H](C)CCCCO[C@@H]1CN(C)Cc1ccccc1 | . | - | . | . | - | .
O=C(C[C@H]1CC[C@H]2[C@@H](COC[C@@H](O)CN2C(=O)c2cnccn2)O1)N1CCN(c2ccccc2)CC1 | . | - | - | . | - | .
CC(NC(=O)C1CCN(C(=O)Nc2ccccc2)CC1)c1ccccc1 (stereo not drawn) | - | - | - | - | - | .
C[C@H]1CN([C@@H](C)CO)C(=O)c2cccc(NS(=O)(=O)c3cccs3)c2O[C@@H]1CN(C)S(=O)(=O)c1ccc(Cl)cc1 | . | - | - | - | - | .
CC(C)NC(=O)N[C@@H]1CC[C@@H](CCNC(=O)C2CCC2)O[C@@H]1CO | . | - | - | - | - | .
COc1cc(OC)c(OC)cc1/C=N/NC(=O)c1ccc2nc[nH]c2c1 | - | . | - | . | . | .
COc1ccc(/C=N/NC(=O)c2ccc3nc[nH]c3c2)c(OC)c1OC | - | - | . | 346 | - | -
C=CCN1C(=O)C2C(C(=O)NCc3ccccc3)C3C=CC2(O3)C1C(=O)NC(C)(C)C (stereo not drawn) | - | - | - | 533 | - | -
COc1ccc(-c2noc(Cc3cccs3)n2)cc1 | - | - | 93 | active | - | -
COc1ccc(Cl)cc1NC(=O)CSc1nc2[nH]ncc2c(=O)[nH]1 | - | - | - | 109 | - | -
C[C@@H]1CN([C@H](C)CO)C(=O)c2cc(C#CCN(C)C)cnc2O[C@H]1CN(C)C(=O)c1ccc(F)cc1 | . | - | - | - | - | .
C=CCN(Cc1ccccc1)C(=O)[C@H]1N(Cc2ccc(OC)cc2)C(=O)[C@@H]2[C@@H](C(=O)O)C3C=CC21O3 (stereo partly drawn) | . | - | . | - | . | .
COc1ccc(CN2C(=O)[C@@H]3[C@H]4C(=O)O[C@H](c5ccccc5)[C@@H](C)N(C)C(=O)CC/C=C/[C@H]4O[C@@]34C=CCN(Cc3ccccc3)C(=O)[C@@H]24)cc1 | . | - | . | 12! | . | -
C[C@@H]1CN([C@@H](C)CO)C(=O)c2cc(C#CC3CCCC3)cnc2O[C@H]1CN(C)C(=O)Nc1ccccc1 | . | - | ? | 157 | - | -
C[C@H](CO)N1C[C@H](C)[C@@H](CN(C)Cc2cccnc2)Oc2ncc(C#CC3CCCCC3)cc2C1=O | . | - | - | 141 | - | -
COc1cccc(NC(=O)C[C@@H]2CC[C@H]3[C@H](COc4ccc(NC(C)=O)cc4C(=O)N3C)O2)c1 | . | - | - | - | - | .
CC(C)(C)c1ccc(C(=O)N2CCCCCC2=O)cc1 | - | - | - | 279 | - | -
O=C1CCCCCN1C(=O)c1ccccc1 | - | . | - | . | - | .
O=S(=O)(Nc1cccc(-c2cn3cccnc3n2)c1)c1ccc(-c2ccccc2)cc1 | - | - | - | 545 | - | -
C[C@H]1CN([C@@H](C)CO)S(=O)(=O)c2ccc(-c3cncnc3)cc2O[C@@H]1CN(C)Cc1ccccn1 | . | - | - | - | - | .
C[C@H](CO)N1C[C@H](C)[C@H](CN(C)Cc2ccccn2)Oc2cc(-c3cncnc3)ccc2S1(=O)=O | . | - | - | 124 | - | -
SMILES | Glyco luc inh | Cneo AK release | Statin myotox sup | Yeast UUG start-1 | miR122 inh | Yeast UUG start-2
C[C@H]1CN([C@@H](C)CO)S(=O)(=O)c2ccc(C#Cc3ccncc3)cc2O[C@@H]1CN(C)S(=O)(=O)c1ccccc1 | . | - | - | 126 | ? | -
Cc1ccc(-c2ccc3c(c2)O[C@H](CN(C)C(=O)Nc2ccccc2)[C@H](C)CN([C@H](C)CO)S3(=O)=O)cc1 | . | - | - | 122 | . | -
CNC[C@H]1Oc2cc(C#Cc3ccc(F)cc3)ccc2S(=O)(=O)N([C@H](C)CO)C[C@@H]1C | . | - | - | - | - | .
CNC[C@H]1Oc2cc(C#Cc3ccccc3F)ccc2S(=O)(=O)N([C@H](C)CO)C[C@@H]1C | . | - | - | 137 | - | -
C[C@H](CO)N1C[C@H](C)[C@@H](CN(C)Cc2ccc(Oc3ccccc3)cc2)Oc2ccc(NC(=O)CCN3CCOCC3)cc2CC1=O | . | - | - | - | - | .
C[C@@H]1CN([C@H](C)CO)C(=O)c2cc(C#CC3(O)CCCC3)cnc2O[C@@H]1CN(C)C(=O)Cc1cccnc1 | . | . | - | . | - | .
C/C=C/c1ccc2c(c1)O[C@@H](CN(C)CCC)[C@@H](C)CN([C@@H](C)CO)S2(=O)=O | . | - | - | - | - | .
COc1ccccc1NC(=O)N(C)C[C@H]1Oc2cc(Br)ccc2S(=O)(=O)N([C@@H](C)CO)C[C@@H]1C | . | - | - | 162 | - | -
Cc1ccc(-c2ccc3c(c2)O[C@@H](CN(C)Cc2cncnc2)[C@@H](C)CN([C@H](C)CO)S3(=O)=O)cc1 | . | - | - | 135 | - | -
C[C@H]1CN([C@@H](C)CO)S(=O)(=O)c2ccc(-c3cncnc3)cc2O[C@@H]1CN(C)C(=O)C1CCCCC1 | . | - | - | 254 | . | -
C[C@H](CO)N1C[C@H](C)[C@H](CN(C)C(=O)C2CCCCC2)Oc2cc(-c3cncnc3)ccc2S1(=O)=O | . | - | - | - | . | .
C/C=C/c1ccc2c(c1)O[C@H](CN(C)CCC)[C@H](C)CN([C@H](C)CO)S2(=O)=O | . | - | - | 75 | - | -
C[C@H]1CN([C@@H](C)CO)C(=O)c2cc(-c3cncnc3)cnc2O[C@@H]1CN(C)CC1CCCC1 | . | - | - | - | . | .
Cc1cc(C)c(NC(=O)CCc2c(C)noc2C)c(C)c1 | - | - | - | - | . | .
CC(C)C#Cc1ccc2c(c1)O[C@@H](CN(C)C(=O)CC1CC1)[C@H](C)CN([C@H](C)CO)S2(=O)=O | . | - | - | 70 | - | -
CCCC#Cc1ccc2c(c1)O[C@H](CN(C)Cc1cncnc1)[C@@H](C)CN([C@@H](C)CO)S2(=O)=O | . | - | - | 80 | - | -
CCCC#Cc1ccc2c(c1)O[C@@H](CN(C)C(=O)CN(C)C)[C@H](C)CN([C@@H](C)CO)S2(=O)=O | . | - | - | - | - | .
CCCC#Cc1ccc2c(c1)O[C@@H](CN(C)C)[C@@H](C)CN([C@H](C)CO)S2(=O)=O | . | - | - | 128 | - | -
CCCC#Cc1ccc2c(c1)O[C@@H](CN(C)C(=O)CN(C)C)[C@H](C)CN([C@H](C)CO)S2(=O)=O | . | - | - | 150 | - | -
